Patent publication US9266878B2, “Phosphatidylinositol 3-kinase inhibitors” (Gilead Calistoga LLC, priority 2012, dated 2016)

The chains behind the UniProt entries cited, without tags or fusion partners. Where a name states a change or a piece, a line headed by the entry shows the natural chain unless it says otherwise.
UniProt P42336, whole entry: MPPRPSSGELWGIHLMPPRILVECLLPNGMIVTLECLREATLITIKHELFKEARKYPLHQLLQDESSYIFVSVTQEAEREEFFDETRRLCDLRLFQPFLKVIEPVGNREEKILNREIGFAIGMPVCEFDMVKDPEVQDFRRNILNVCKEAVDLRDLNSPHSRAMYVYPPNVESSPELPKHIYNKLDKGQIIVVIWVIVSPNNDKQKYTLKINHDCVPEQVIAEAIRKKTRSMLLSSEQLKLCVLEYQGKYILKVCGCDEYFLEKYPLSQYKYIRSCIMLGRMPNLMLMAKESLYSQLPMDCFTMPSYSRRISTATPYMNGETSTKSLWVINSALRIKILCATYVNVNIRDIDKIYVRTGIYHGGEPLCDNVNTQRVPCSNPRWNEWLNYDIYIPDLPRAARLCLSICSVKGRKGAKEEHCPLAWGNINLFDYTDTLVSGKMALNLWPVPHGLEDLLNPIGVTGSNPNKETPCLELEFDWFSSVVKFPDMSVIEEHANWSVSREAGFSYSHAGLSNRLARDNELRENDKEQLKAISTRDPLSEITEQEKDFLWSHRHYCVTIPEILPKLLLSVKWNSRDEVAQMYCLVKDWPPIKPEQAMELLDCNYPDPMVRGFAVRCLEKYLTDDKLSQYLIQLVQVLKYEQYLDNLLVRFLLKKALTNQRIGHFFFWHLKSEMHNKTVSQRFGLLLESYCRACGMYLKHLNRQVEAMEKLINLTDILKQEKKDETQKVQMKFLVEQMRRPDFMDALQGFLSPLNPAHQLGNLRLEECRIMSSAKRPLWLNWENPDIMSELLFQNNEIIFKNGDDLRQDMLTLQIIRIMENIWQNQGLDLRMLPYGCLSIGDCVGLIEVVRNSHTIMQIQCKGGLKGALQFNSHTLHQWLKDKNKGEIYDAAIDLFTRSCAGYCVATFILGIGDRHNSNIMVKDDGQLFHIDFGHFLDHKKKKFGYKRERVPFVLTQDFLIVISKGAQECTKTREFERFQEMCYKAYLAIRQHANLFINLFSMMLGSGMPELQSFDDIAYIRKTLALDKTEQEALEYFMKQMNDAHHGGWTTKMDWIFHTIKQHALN
UniProt P42338, whole entry: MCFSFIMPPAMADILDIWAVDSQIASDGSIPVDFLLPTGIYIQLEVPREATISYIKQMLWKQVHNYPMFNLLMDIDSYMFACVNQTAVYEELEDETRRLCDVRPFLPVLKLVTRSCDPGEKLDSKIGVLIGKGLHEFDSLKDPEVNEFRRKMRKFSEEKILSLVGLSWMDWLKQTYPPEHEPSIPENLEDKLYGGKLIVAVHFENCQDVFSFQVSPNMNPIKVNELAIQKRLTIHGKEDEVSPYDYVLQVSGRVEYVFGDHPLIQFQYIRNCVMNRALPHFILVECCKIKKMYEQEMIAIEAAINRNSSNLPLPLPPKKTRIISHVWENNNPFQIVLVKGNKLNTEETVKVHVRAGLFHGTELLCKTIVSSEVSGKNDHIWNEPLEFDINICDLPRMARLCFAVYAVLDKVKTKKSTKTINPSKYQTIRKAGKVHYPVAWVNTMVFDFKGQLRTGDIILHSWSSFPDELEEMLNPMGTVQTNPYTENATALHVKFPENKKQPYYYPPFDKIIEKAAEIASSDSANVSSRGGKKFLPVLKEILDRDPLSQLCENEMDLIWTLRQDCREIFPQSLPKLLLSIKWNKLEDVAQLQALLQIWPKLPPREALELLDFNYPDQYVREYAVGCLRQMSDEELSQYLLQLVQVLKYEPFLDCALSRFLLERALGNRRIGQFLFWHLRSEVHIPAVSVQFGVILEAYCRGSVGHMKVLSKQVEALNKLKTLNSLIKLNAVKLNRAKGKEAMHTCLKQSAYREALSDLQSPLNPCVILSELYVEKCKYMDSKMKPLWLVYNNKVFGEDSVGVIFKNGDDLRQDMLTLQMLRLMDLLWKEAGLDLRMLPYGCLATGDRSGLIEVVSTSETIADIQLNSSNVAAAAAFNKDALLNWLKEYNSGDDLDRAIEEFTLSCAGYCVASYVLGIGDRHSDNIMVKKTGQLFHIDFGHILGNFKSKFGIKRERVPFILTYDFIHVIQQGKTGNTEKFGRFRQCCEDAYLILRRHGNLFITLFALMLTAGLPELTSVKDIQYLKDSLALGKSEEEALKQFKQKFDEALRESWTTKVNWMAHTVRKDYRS
UniProt O00329, whole entry: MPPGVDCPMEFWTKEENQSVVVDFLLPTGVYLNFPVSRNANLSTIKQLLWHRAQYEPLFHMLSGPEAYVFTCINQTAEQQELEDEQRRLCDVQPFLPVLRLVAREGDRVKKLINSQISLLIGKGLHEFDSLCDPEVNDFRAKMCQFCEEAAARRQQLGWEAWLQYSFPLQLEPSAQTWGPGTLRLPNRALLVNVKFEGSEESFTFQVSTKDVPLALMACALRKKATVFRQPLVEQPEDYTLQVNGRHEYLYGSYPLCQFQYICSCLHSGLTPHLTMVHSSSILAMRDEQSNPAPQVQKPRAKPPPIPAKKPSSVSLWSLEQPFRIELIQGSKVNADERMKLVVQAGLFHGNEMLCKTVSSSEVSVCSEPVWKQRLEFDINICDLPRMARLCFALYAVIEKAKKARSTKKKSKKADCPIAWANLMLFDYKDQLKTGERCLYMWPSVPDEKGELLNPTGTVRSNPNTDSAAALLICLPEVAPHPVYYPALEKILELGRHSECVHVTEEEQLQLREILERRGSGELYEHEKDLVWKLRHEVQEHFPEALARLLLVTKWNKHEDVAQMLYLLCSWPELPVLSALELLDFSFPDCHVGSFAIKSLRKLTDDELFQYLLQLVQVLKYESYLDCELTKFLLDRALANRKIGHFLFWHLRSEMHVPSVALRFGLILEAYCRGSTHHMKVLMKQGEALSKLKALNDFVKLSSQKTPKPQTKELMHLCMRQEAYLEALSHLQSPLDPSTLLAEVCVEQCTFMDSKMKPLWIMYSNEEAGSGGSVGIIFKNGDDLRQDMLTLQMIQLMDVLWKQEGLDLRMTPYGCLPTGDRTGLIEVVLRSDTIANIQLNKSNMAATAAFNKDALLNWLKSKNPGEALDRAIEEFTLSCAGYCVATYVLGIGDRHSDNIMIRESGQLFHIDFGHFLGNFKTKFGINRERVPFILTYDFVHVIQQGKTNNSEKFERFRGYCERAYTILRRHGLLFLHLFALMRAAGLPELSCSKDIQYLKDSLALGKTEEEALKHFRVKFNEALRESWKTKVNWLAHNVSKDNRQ
UniProt P48736, whole entry: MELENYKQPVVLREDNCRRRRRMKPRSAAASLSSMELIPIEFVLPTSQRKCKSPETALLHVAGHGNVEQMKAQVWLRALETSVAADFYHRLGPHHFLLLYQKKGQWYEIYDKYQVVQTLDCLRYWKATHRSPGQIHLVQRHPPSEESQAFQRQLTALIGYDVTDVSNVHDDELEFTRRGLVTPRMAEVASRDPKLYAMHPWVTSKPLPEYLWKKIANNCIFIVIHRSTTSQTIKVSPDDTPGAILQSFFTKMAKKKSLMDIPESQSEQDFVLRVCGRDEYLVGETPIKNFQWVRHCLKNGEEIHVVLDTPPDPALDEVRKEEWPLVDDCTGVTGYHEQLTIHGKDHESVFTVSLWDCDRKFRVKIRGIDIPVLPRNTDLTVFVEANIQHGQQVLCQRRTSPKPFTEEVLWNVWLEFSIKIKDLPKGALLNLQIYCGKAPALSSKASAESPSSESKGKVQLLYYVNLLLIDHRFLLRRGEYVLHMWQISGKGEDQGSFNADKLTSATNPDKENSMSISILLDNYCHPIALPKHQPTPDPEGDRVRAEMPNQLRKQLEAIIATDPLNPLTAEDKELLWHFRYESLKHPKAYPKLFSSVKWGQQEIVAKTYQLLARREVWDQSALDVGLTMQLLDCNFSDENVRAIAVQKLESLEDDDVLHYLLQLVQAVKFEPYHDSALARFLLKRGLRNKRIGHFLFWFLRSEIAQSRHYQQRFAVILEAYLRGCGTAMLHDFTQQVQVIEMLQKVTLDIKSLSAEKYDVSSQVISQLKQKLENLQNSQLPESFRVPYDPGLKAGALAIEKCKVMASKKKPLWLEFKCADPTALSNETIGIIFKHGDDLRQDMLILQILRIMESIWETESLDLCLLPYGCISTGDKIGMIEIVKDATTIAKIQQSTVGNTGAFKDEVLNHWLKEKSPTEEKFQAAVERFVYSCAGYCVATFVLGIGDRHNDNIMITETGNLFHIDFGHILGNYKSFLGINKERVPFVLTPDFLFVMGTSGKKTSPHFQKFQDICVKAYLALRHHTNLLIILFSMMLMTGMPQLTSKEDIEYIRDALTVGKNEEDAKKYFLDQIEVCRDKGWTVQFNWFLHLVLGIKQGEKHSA
UniProt P27986, whole entry partner: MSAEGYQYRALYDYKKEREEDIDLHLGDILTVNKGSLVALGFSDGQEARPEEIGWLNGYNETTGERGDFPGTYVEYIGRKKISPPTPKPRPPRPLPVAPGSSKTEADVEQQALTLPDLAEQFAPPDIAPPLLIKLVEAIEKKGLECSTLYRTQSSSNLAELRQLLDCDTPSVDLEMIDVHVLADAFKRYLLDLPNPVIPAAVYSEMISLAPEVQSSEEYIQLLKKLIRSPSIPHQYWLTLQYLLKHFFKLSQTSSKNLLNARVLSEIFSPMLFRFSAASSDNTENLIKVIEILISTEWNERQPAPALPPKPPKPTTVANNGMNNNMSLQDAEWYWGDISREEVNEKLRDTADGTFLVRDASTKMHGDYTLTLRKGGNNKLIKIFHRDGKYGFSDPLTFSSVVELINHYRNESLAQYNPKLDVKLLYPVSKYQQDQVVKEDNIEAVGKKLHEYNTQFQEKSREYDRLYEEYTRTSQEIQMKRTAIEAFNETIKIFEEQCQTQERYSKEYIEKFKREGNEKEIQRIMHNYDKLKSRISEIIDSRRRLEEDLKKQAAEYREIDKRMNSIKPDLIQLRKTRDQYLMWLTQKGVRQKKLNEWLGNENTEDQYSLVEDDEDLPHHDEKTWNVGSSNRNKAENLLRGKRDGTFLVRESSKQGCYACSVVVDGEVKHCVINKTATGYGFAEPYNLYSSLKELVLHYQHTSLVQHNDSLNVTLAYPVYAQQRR
UniProt Q8WYR1, whole entry partner: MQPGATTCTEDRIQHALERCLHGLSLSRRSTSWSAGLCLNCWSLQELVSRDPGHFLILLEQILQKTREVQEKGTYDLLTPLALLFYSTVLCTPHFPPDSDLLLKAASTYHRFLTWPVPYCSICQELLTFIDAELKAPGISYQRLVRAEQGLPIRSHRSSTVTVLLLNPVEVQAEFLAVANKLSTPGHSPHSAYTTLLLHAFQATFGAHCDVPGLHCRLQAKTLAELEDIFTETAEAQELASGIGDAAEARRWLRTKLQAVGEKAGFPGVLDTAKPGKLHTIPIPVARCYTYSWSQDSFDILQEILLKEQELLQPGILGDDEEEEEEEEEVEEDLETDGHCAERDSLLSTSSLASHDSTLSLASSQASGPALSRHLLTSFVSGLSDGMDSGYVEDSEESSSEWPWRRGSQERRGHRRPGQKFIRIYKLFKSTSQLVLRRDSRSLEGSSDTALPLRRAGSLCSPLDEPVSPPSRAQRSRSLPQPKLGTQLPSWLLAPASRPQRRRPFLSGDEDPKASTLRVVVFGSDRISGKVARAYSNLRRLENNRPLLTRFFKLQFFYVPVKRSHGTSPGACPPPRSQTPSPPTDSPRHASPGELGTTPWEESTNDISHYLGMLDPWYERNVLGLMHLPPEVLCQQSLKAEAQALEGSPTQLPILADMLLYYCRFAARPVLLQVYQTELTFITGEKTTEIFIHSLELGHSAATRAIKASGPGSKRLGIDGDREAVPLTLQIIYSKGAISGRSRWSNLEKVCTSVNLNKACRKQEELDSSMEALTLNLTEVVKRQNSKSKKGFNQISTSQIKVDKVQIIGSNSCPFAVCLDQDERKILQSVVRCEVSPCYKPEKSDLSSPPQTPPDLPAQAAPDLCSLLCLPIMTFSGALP

Key:
Experiment in all cases: Enzymatic activity of PI3K isoforms, TR-FRET assay (PIP3 formation)
PI3Kα = PI3Kα (Homo sapiens (Human), UniProt P42336)
PI3Kβ = PI3Kβ (Homo sapiens (Human), UniProt P42338); settings: read-out: IC50-PIP-β, bound given in nM
PI3Kδ = PI3Kδ (Homo sapiens (Human), UniProt O00329); settings: read-out: IC50-PIP-δ, bound given in nM
PI3Kγ = PI3Kγ (Homo sapiens (Human), UniProt P48736); settings: read-out: IC50-PIP-γ, bound given in nM

Compound	IC50 (PI3Kα; read-out: IC50-PIP-α, bound given in uM) [µM]	IC50 (PI3Kβ) [nM]	IC50 (PI3Kδ) [nM]	IC50 (PI3Kα; read-out: IC50-PIP-α, bound given in nM) [µM]	IC50 (PI3Kγ) [nM]
C[C@H](Nc1ncnc(N)c1C#Cc1ncccc1F)c1nc2cccc(Cl)c2c(=O)n1-c1cc(F)cc(F)c1	> 1	< 100	< 100		
COc1cccnc1C#Cc1c(N)ncnc1N[C@@H](C)c1nc2cccc(Cl)c2c(=O)n1-c1cc(F)cc(F)c1		< 100	< 100	< 0.1	< 100

Like-named read-outs stand apart in the source and are kept apart here.
